Test results from patent US7713559B2, “Amorphous water-soluble calcium citrate salts and method of making and using same” (Kraft Foods Global Brands LLC, priority 2004, dated 2010).

Tests used:
[1] = dissolution in water and freedom from haze and sediment at 350 mg calcium per eight fluid ounce serving; type: physicochemical
Text: The solution remained completely free of haze and sediment for at least two days of storage at room temperature. Similar or even better results were obtained from the salts prepared having calcium:citrate mole ratios lower than 2:2, even when dissolved in water at higher concentrations.
These powders, in spite of the sediment produced, would provide very acceptable performance in many, if not most, food applications, including instant beverage mixes and acidified RTD beverages.
This behavior might also be acceptable in some situations (i.e., opaque instant beverage mixes), but appears to represent a practical upper limit for applications that require high levels of soluble calcium and/or require a sediment-free transparent appearance.
As an alternative to freeze drying, an amorphous 2:2 mole ratio calcium citrate salt, using the same ingredients as in Example 1, was also successfully produced via spray drying (i.e., pilot scale drying using standard operating conditions and procedures). In this case, chilled calcium hydroxide and citric acid solutions were combined and rapidly spray dried before solidification or sediment formation could occur. […] In a large scale commercial process, the citric acid and calcium hydroxide (or other suitable reagents) would be beneficially combined just prior to spray drying to limit the potential for solidification or sediment formation.
One batch of the chilled citric acid solution was poured into a mix tank jacketed with cooling water and one batch of calcium hydroxide suspension was added with stirring. […] The clear solution was immediately pumped into a semi-works scale spray dryer, fitted with an atomizing nozzle, at a flow rate of about 0.5 kg per minute. Additional batches of citric acid solution and calcium hydroxide suspension were similarly added to the mix tank as needed to prevent complete emptying. A sample of fine white powder was collected from the spray dryer after ten minutes of operation. […] After a further fifteen minutes, the cooling water was shut off from the jacketed mix tank. […]

[2] = shelf life testing of calcium-fortified RTD beverage; type: physicochemical; conditions: CRYSTAL LIGHT RTD lemon beverage; amounts to provide the same level of calcium
Method: Fortified RTD beverages were formulated with several forms of calcium citrate. The visual appearance, flavor, and stability of the products were evaluated over a seven-month period by an experienced panel. Identical samples of each fortified beverage were prepared for shelf life testing under both ambient (22° C.) and refrigerated (4° C.) storage conditions.
The freeze dried amorphous 2:2 mole ratio calcium citrate salt (17% calcium) of Example 1 was successfully used to fortify a ready-to-drink sugar-free lemon-flavored beverage (CRYSTAL LIGHT®) with 350 mg calcium per eight fluid ounce serving (“excellent source of calcium” level). To formulate the calcium-fortified powdered mix, eight fluid ounces of commercial CRYSTAL LIGHT® RTD beverage mix was mixed thoroughly with 2 g of the freeze dried amorphous 2:2 mole ratio calcium citrate salt.

Substance: calcium citrate monohydrate [reference compound]
- haze and sediment produced at first, on or soon after addition to water ([1]; 350 mg calcium per eight fluid ounce serving): immediately produced a large amount of coarse, gritty white sediment
- time for sediment to completely dissolve ([1]; 350 mg calcium per eight ounce serving, room temperature): several days
- dissolution behaviour on addition to water ([1]; freeze dried powders of Example 1 or commercial salts, room temperature water, 350 mg calcium per eight fluid ounce serving): did not completely disperse in water
- sediment in fortified RTD beverage upon admixture of the ingredients [2]: noticeable sediment formation
